In the experiment the target is MART-1 (MELAN-A) peptide on HLA-A*02:01 (human). Briefly: activation reporter or marker.

B1: Radium-1 TCR (TCR, V domains shown)
Valpha: GIQVEQSPPDLILQEGANSTLRCNFSDSVNNLQWFHQNPWGQLINLFYIPSGTKQNGRLSATTVATERYSLLYISSSQTTDSGVYFCAVNAGNMLTFGGGTRLMVKP
Vbeta: DVKVTQSSRYLVKRTGEKVFLECVQDMDHENMFWYRQDPGLGLRLIYFSYDVKMKEKGDIPEGYSVSREKKERFSLILESASTNQTSMYLCASSSGVTGELFFGEGSRLTVL
With B1, the binding result was “no recognition”.
